{"source": "patent US9458141B2", "about": "“Low molecular weight thyroid stimulating hormone receptor (TSHR) agonists” (The United States of America, as represented by the …, priority 2008, dated 2016)", "target": "T1, TSHR (Mus musculus, UniProt P47750)", "T1 construct": "from tissue; host or cells: whole animal, C57 BL/6 mice (thyroid TSHR); read-out is serum total T4", "experiment": "In vivo TSHR activation in mice, serum total thyroxine (T4)", "conditions": "C57 BL/6 mice, intraperitoneal injection, 20 ug compound or 30 ug TSH, 2 hours after administration", "method": "We have shown in vitro using transfected cells that compounds disclosed herein activate the mouse TSHR with similar potency and efficacy as human TSHR. Because the known physiology of TSHRs is similar in mice and humans, in vivo studies in mice offer an ideal preclinical model for assessing possible clinical applications for these compound disclosed herein. We determined if one compound disclosed herein can activate TSHR when administered by intraperitoneal injection. 20 ug of the compound disclosed herein and 30 ug TSH in PBS containing 2% DMSO were administered to unanesthetized C57 BL/6 mice. The experimental endpoint was total thyroxine (T4) measurement in serum obtained from terminal retroorbital bleeds from anesthetized mice 2 hours after administration of the compound or TSH. Total T4 levels did rise after injection of TSH and of the compound disclosed herein.", "data": [{"substance": "TSH: \"Thyroid-stimulating hormone (TSH) is a heterodimeric glycoprotein hormone that regulates thyroid homeostasis\"", "values": [{"measurement": "total T4 levels in serum", "result": "did rise"}]}]}
